Laboratory results published in patent publication US12364718B2, “Microbial compositions to increase the production of PCA from polyphenols” (priority 2020, dated 2025).
Counter-ions that a name gives are not always drawn.

Tested on: B. subtilis 1579
Assay: National Antimicrobial Resistance Monitoring System (NARMS) panel screening, MIC in […] 96-well plate
Type: cell-based, Bacillus subtilis
Conditions: CLSI M45 Bacillus spp. or NARMS Enterococcus breakpoints; for MIC interpretation (susceptible/intermediate/resistant), 1579a: duplicate a; for MIC interpretation (susceptible/intermediate/resistant), 1579b: duplicate b
Description: Methods. […] A sterile swab was used to take a portion of the pellet and resuspended in sterile ddH2O tubes; a 0.5 McFarland standard was used to determine the optimal dilution. 15 microliters of the ddH2O was transferred into the 5 mL tubes of Mueller-Hinton broth and the mixture was vortexed and poured into a sterile boat. A p200 multi-channel pipette was used to transfer 50 microliters into each well of the […] 96-well microtiter plate (CMV3AGPF) plate (FIG. 3) and sealed. The plates were incubated at 37° C. overnight. The plates were removed at 18 hours and each well was given a result of either positive or negative depending on if there was any growth in the well.

Compound	MIC interpretation (susceptible/intermediate/resistant), 1579a	MIC interpretation (susceptible/intermediate/resistant), 1579b
NC[C@H]1O[C@H](O[C@H]2[C@H](O)[C@@H](O[C@H]3O[C@H](CO)[C@@H](O)[C@H](N)[C@H]3O)[C@H](N)C[C@@H]2N)[C@H](O)[C@@H](O)[C@@H]1O [Kanamycin]	S	R
CCC[C@@H]1C[C@@H](C(=O)N[C@@H]([C@H]2O[C@H](SC)[C@H](O)[C@@H](O)[C@H]2O)[C@@H](C)O)N(C)C1 [Lincomycin]	R	R
CC(=O)NC[C@H]1CN(c2ccc(N3CCOCC3)c(F)c2)C(=O)O1 [Linezolide]	I	R
[H]/N=C(/N)N[C@H]1[C@H](O)[C@@H](O)[C@H](O[C@@H]2O[C@@H](C)[C@](O)(C=O)[C@H]2O[C@@H]2O[C@@H](CO)[C@H](O)[C@@H](O)[C@@H]2NC)[C@@H](N/C(N)=N\[H])[C@@H]1O [Streptomycin]	R	S
CC[C@H]1OC(=O)C[C@@H](O)[C@H](C)[C@@H](O[C@@H]2O[C@H](C)[C@@H](O[C@H]3C[C@@](C)(O)[C@@H](O)[C@H](C)O3)[C@H](N(C)C)[C@H]2O)[C@@H](CC=O)C[C@@H](C)C(=O)/C=C/C(C)=C/[C@@H]1CO[C@@H]1O[C@H](C)[C@@H](O)[C@@H](OC)[C@H]1OC [Tylosin tartrate]	S	S
Quinupristin/dalfopristin	R	R
